# Screening data from PubChem.
# Compounds with a hit are over-represented: about 1.3% of the library has one in this group of screens.
# LGR2 antag: inhibitors of bursicon-induced LGR2 CRE-luciferase signal, primary screen, cell-based, HEK293, CRE-luciferase reporter, bursicon stimulation; Drosophila bursicon receptor LGR2 (rickets); bursicon-stimulated, 4 h; inhibition, % at 9.99 µM; 380,000 tested, 0.35% active; AID 720647, 2013;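 active = drop in luminescence signal, shown as inhibition above about 50% in the replicate tests, limit read from the data, passing the limit was not always enough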;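 note: agonist challenge used bursicon conditioned medium at about half maximal strength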
# EWS-Fli block: EWS/Fli-driven NR0B1 reporter inhibitors, primary screen, A673 cells, NR0B1 luciferase, luminescence, MLPCN library. 350,000 tested, 0.67% active. inhibition, % at 12.6 µM. viability-normalised. AID 651661, 2012;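 active = mean inhibition of at least 50% after viability correction, with every replicate also passing that limit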;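 note: firefly luciferase signal divided by Alamar Blue viability fluorescence both relative to DMSO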
# PglD inh: C. jejuni PglD acetyltransferase inhibitors, primary screen, biochemical, DTNB colorimetric, single point | purified PglD enzyme, DTNB colorimetric CoA detection | 360,000 tested, 0.098% active | inhibition, % at 12.5 µM | UDP-N-acetylbacillosamine N-acetyltransferase PglD (Campylobacter jejuni) | AID 602405, 2012; in the data active = inhibition above about 16%, passing the limit was not always enough
# UUG fidelity: modulators of start codon recognition fidelity in yeast; AID 602363; activity score, % at 18.7 µM; S. cerevisiae UUG-firefly luciferase reporter, luminescence/redox ratio; 0.13% of 350,000 active;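 active = replicate mean at a twofold rise or more, about +100% in these data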;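 note: firefly luciferase made from a UUG start codon reports start codon fidelity; reporter light over untreated wells divided by growth signal over untreated wells; some hits fall short of that in this replicate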
# miR-122 sensor: miR-122 Renilla sensor signal increase in Huh7, primary screen, miR-122 inhibitor project, cell-based, single point, plate reader. Huh7 miR-122 Renilla luciferase sensor, 48 h; neutral wells = 0, positive control = 100. AID 602342, 2012. activation (reporter increase), % at 12.5 µM. 340,000 tested, 0.3% active;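 active = mean replicate activation score at least 90 and every replicate individually at or above 90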;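 note: higher luciferase means less miR-122 activity so hits act as miR-122 inhibitors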
# F508del corr: F508del CFTR correction, initial screen, CFBE line, single point; CFBE cells, YFP halide quenching; stimulated with forskolin plus potentiator P3; % fluorescence drop versus neutral controls; activity (quench increase), % at 7.58 µM; 350,000 tested, 0.36% active;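 active = mean added fluorescence quench of at least 8% versus neutral control, with both replicates also reaching 8%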;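 note: cells transiently co-express mutant CFTR-F508del with the halide-sensitive YFP; corrector assay measuring rescue of mutant channel to the surface after 24 h compound exposure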
# * marks the source's active call; other numbers are inactive results; x = no result given; [ ] = another dose, or the depositor's remark.
SMILES,LGR2 antag,EWS-Fli block,PglD inh,UUG fidelity,miR-122 sensor,F508del corr
Cc1csc(N=Nc2ccc(N(C)C)cc2)[n+]1[O-],74.8*,-13.7,x,x,x,1.2
Cc1ccc(/C=N/NC(=O)C2COc3ccccc3O2)s1 (configuration not stated),-10.0,-53.9,2.1,8.6,20.0,11.0*
Cc1nnc(NC(=O)C2COc3ccccc3O2)s1 (configuration not stated),x,x,-5.9,-15.5,-6.2,x
O=C(Nc1nc2c(s1)CCCC2)C1COc2ccccc2O1 (configuration not stated),80.0*,-81.6,-2.8,-72.7,2.6,-1.2
O=C(N/N=C/c1cccs1)C1COc2ccccc2O1 (configuration not stated),x,x,1.1,-2.1,5.9,x
CC1CC(C)CN(C(=O)c2ccc(Br)c(S(=O)(=O)N3CCOCC3)c2)C1 (configuration not stated),3.9,5.9,-2.3,-7.4,23.4,2.4
CCOc1ccc(C(=O)NNC(=O)CCNC(=O)c2ccc(Br)cc2)cc1OC,17.6,1.6,-0.7,-20.0,-11.2,21.2*
Cc1ccc(OCCC(=O)NNC(=O)c2ccc(Br)cc2)cc1,-2.3,-8.1,-3.7,-6.0,-0.2,8.6*
Cc1ccc(OCCC(=O)NNC(=O)c2ccncc2)cc1,-6.0,0.3,-1.3,-6.4,3.7,-0.8
CCCN(C)C[C@H]1Oc2ncc(C#CC3(O)CCCC3)cc2C(=O)N([C@H](C)CO)C[C@H]1C,-5.4,-7.4,0.8,-5.3,-9.7[16.7 µM],0.3
COc1ccc(NC(=O)/C(Cl)=C(/Cl)S(=O)Cc2ccc(Cl)cc2)cn1 (configuration not stated),101.4*,73.7*,x,x,-30.3,-6.1
CC1Cc2ccccc2N1S(=O)(=O)c1cccc(C(=O)N2CCN(c3ncccn3)CC2)c1 (configuration not stated),3.4,-29.4,x,x,x,8.5*

# One compound at a time (already shown). Order of values: LGR2 antag, EWS-Fli block, PglD inh, UUG fidelity, miR-122 sensor, F508del corr
# `COc1ccc(NC(=O)/C(Cl)=C(/Cl)S(=O)Cc2ccc(Cl)cc2)cn1` (configuration not stated) is listed with 101.4*, 73.7*, x, x, -30.3, -6.1
# `O=C(N/N=C/c1cccs1)C1COc2ccccc2O1` (configuration not stated) is listed with x, x, 1.1, -2.1, 5.9, x
# `O=C(Nc1nc2c(s1)CCCC2)C1COc2ccccc2O1` (configuration not stated) is listed with 80.0*, -81.6, -2.8, -72.7, 2.6, -1.2

# Further records:
SMILES,LGR2 antag,EWS-Fli block,PglD inh,UUG fidelity,miR-122 sensor,F508del corr
CCCCCCOc1ccc(/C(C)=N/NC2=NCCN2)cc1[N+](=O)[O-],-10.0,59.2*,x,x,x,-0.5
C/C(=N\NC1=NCCN1)c1ccc(N)c([N+](=O)[O-])c1,10.6,-8.0,x,x,x,0.1
CCOc1ccccc1NC(=O)c1cccc(NC(=O)C(C)C)c1,-6.0,5.7,x,x,x,-1.9
O=C(NC1=C(NC2CCS(=O)(=O)C2)C(=O)c2ccccc2C1=O)c1ccccc1 (configuration not stated),78.0*,29.7,-5.5,-1.6,16.6,6.3
O=C(NC1=C(Nc2ccc(Cl)cc2)C(=O)c2ccccc2C1=O)c1ccccc1,x,-7.8,x,x,x,x
O=C1CC(c2ccccc2)Sc2nc3ccccc3n21 (configuration not stated),-15.2,-16.2,x,x,x,-0.1
O=C1CC(c2ccc3c(c2)OCO3)Sc2nc3ccccc3n21 (configuration not stated),54.5*,x,-2.9,-36.1,-1.7,x
CC(C)(C)C(=O)NNC(=O)CCCOc1ccc(Cl)cc1Cl,x,x,-5.5,-17.8,-3.0,x
COc1ccc(-c2ccc(SC)nn2)cc1,82.9*,58.4*,-4.5,-65.1,-7.4,-2.2
CCSc1ccc(-c2ccc(C)cc2)nn1,-19.2,-10.5,x,x,x,-5.1
CCOc1ccc(-c2ccc(SCC)nn2)cc1,59.0*,-4.0,0.7,-39.3,0.9,-1.0
CCCn1c(C)cc(C(=O)CN2C(=O)NC3(CCCCCC3)C2=O)c1C,x,-59.4,3.0,-14.6,6.0,1.6
CCOc1ccccc1CN(Cc1ccco1)S(=O)(=O)c1ccc(-n2cnnn2)c(OC)c1,14.0,x,3.3,4.4,137.8*,x
CCN1C(=O)c2cccc3c(N)ccc(c23)C1=O,-13.6,1.2,5.7,2.9,6.4,18.7*
Cc1nn(C)c(C)c1N1C(=O)c2cccc3c(N)ccc(c23)C1=O,-9.4,x,-8.9,-20.8,-4.1,x
CCc1nc(C)cn1S(=O)(=O)c1ccc(Br)cc1,-14.3,-3.8,1.7,0.4,-6.2,-4.2
CCc1nc(C)cn1S(=O)(=O)c1ccc2c(c1)OCCO2,2.4,-2.2,-0.2,-4.6,-1.8,8.9*
C[C@@H]1CCCCO[C@@H](CN(C)CC2CCCCC2)[C@@H](C)CN([C@H](C)CO)C(=O)c2cc(NS(=O)(=O)c3ccc(Cl)cc3)ccc2O1,x,5.9,-3.3,-5.3,-6.8,0.4
C[C@@H]1CN([C@H](C)CO)C(=O)c2cc(NS(=O)(=O)c3ccc(Cl)cc3)ccc2O[C@@H](C)CCCCO[C@@H]1CN(C)CC1CCCCC1,-4.4,61.4*,-3.2,22.1,-19.4[16.7 µM],3.9
C[C@@H]1CCCCO[C@H](CN(C)CC2CCCCC2)[C@@H](C)CN([C@H](C)CO)C(=O)c2cc(NS(=O)(=O)c3ccc(Cl)cc3)ccc2O1,2.6,-3.7,2.3,5.6,0.2[16.7 µM],3.6
C[C@@H]1CCCCO[C@H](CN(C)CC2CCCCC2)[C@H](C)CN([C@H](C)CO)C(=O)c2cc(NS(=O)(=O)c3ccc(Cl)cc3)ccc2O1,25.9,62.7*,1.0,20.2,-26.7[16.7 µM],4.2
Cc1nnc(SCc2ccc3c(c2)OCO3)s1,x,x,-0.9,-17.2,-2.2,x
COCCNC(=O)NC12CC3(C)CC(C)(CC(C)(C3)C1)C2,4.2,-5.1,x,x,x,10.1*
CC1CC(C)CN(C(=O)CSC2=Nc3ccccc3C3=NC(Cc4c[nH]c5ccccc45)C(=O)N23)C1 (configuration not stated),x,x,-2.2,1.2,211.9*,x

# Entries above that contain a thiophene ring, fused or not (2):
SMILES,LGR2 antag,EWS-Fli block,PglD inh,UUG fidelity,miR-122 sensor,F508del corr
Cc1ccc(/C=N/NC(=O)C2COc3ccccc3O2)s1 (configuration not stated),-10.0,-53.9,2.1,8.6,20.0,11.0*
O=C(N/N=C/c1cccs1)C1COc2ccccc2O1 (configuration not stated),x,x,1.1,-2.1,5.9,x

# Other structures.
SMILES,LGR2 antag,EWS-Fli block,PglD inh,UUG fidelity,miR-122 sensor,F508del corr
COC(=O)[C@]12CCCCC=C1N(Cc1cccc3ccccc13)C(=O)[C@H](CC(=O)NCc1ccc(OC)c(OC)c1)C2,88.7*,23.3,x,x,x,-0.5
COC(=O)[C@]12CCCCC=C1N(CCc1ccc(OC)c(OC)c1)C(=O)[C@H](CC(=O)NCc1cccc3ccccc13)C2,27.0,13.2,x,x,x,0.1
CCOc1ccc(N(C(=O)CNC(=O)c2cccs2)C(C(=O)NCC2CCCO2)c2ccc(OC)c(OC)c2)cc1 (configuration not stated),-2.8,6.3,x,x,x,2.5
FC(F)(F)c1nnc2c(Sc3ccccc3)nc3ccc(Cl)cc3n12,x,x,-2.9,-17.9,307.2*,x
FC(F)(F)c1nc2ccccc2n2c(-c3ccc(Cl)cc3Cl)nnc12,x,x,10.5,-3.4,-17.2,x
COc1ccc(/C=C(\C#N)C(=O)N2CCOCC2)cc1Br,10.0,x,4.8,-12.4,0.1,x
Cc1cc(/C=C(\C#N)C(=O)N2CCOCC2)c(C)n1C1CCCC1,52.3*,8.3,x,x,x,-0.4
CN(C)Cc1cccc([N+](=O)[O-])c1O,4.1,2.2,0.2,-19.1,0.3,-1.6
O=C(CSc1nnc(C2COc3ccccc3O2)o1)N1CCCc2ccccc21 (configuration not stated),-3.8,x,13.0,8.3,-4.7,x
